From patent publication US20230346884A1, “Molecular Targets for Modulation of Dissociative and Associative States” (The Board of Trustees of the Leland Stanford Junior …, priority 2020, published 2023)

Tested on: layer 5 RSP cells
Experiment: Ketamine-TRAP brain-wide activity mapping (TRAP2 mice)
Format: in vivo, mouse
Conditions: 50 mg/kg ketamine injections
Method: Dissolved 4-OHT (20 mg/mL in ethanol) was mixed with corn oil at a concentration of 10 mg/mL, and ethanol evaporated by vacuum centrifugation (60 minutes). Mice were each placed alone in a novel cage for 30 minutes, to remain for the experiment. Two mice were injected with 50 mg/kg ketamine intraperitoneally, and two mice were injected with an equivalent volume of saline. After 1 hr, all mice were injected with 50 mg/kg tamoxifen, as well as an additional dose of 50 mg/kg ketamine/saline. After 1 hr, a final dose of ketamine/saline was administered. This protocol was designed to ensure that the ketamine-induced oscillation (and associated cFos expression) was occurring throughout the majority of the ˜4 hr post-tamoxifen-injection time window during which TRAP2 labels cells. After 10 days (to allow time for expression of tdTomato), mice were perfused with ice cold PBS and 4% PFA. Coronal sections (50 μm) were taken using a vibratome and imaged on an epifluorescence microscope.

CNC1(c2ccccc2Cl)CCCCC1=O (stereo not shown) [ketamine]
Layer-specific recruitment by TRAP2 activity-mapping: layer 5 was specifically recruited
